Laboratory results from US20210300900A1, “OGA INHIBITOR COMPOUNDS” (Janssen Pharmaceutica NV, priority 2018, published 2021).
Each block holds one compound with its values, some of them ahead of it.

Sequences of proteins named here, by UniProt entry; tags and fusion partners are left off.
UniProt O60502, whole entry: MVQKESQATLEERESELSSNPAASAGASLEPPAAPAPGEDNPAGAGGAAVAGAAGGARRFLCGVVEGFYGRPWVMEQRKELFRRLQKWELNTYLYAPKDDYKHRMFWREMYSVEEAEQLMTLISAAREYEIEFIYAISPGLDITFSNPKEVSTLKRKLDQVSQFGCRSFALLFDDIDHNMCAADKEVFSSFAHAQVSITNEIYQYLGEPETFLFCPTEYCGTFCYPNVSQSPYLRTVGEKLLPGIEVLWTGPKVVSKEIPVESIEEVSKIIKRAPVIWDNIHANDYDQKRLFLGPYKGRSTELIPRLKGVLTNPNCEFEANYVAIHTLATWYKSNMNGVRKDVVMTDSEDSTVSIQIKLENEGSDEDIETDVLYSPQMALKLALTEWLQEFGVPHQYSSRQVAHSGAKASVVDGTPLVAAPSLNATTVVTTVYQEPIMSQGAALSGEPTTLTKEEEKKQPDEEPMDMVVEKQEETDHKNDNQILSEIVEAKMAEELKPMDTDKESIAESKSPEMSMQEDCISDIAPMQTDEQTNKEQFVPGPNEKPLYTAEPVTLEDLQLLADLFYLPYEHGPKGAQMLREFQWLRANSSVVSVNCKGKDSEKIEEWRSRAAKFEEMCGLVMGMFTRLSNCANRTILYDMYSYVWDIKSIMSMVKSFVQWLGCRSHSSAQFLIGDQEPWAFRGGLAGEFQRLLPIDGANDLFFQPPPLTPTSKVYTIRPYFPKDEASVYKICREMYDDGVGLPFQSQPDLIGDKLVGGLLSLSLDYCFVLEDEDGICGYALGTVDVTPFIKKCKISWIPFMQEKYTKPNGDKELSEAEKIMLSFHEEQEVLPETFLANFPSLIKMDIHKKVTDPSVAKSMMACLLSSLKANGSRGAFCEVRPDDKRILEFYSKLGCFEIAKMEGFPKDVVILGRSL

Tests used:
[1] = biological target: recombinant human Meningioma Expressed Antigen 5 (MGEA5), also referred to as O-GcNAcase (OGA) (Homo sapiens, UniProt O60502); experiment: OGA biochemical assay (inhibition of FM-GlcNAc hydrolysis, fluorescence); conditions: FM-GlcNAc substrate
Source text: The assay is based on the inhibition of the hydrolysis of fluorescein mono-β-D-N-Acetyl-Glucosamine (FM-GlcNAc) (Mariappa et al. 2015, Biochem J 470:255) by the recombinant human Meningioma Expressed Antigen 5 (MGEA5), also referred to as O-GcNAcase (OGA). The hydrolysis FM-GlcNAc (Marker Gene technologies, cat #M1485) results in the formation of B-D-N-glucosamineacetate and fluorescein. The fluorescence of the latter can be measured at excitation wavelength 485 nm and emission wavelength 538 nm. An increase in enzyme activity results in an increase in fluorescence signal. Full length OGA enzyme was purchased at OnGene (cat #TP322411). The enzyme was stored in 25 mM Tris.HCl, pH 7.3, 100 mM glycine, 10% glycerol at −20° C. Thiamet G and GlcNAcStatin were tested as reference compounds (Yuzwa et al. 2008 Nature Chemical Biology 4:483; Yuzwa et al. 2012 Nature Chemical Biology 8:393). The assay was performed in 200 mM Citrate/phosphate buffer supplemented with 0.005% Tween-20. 35.6 g Na2HPO4 2H2O (Sigma, #C0759) were dissolved in 1 L water to obtain a 200 mM solution. 19.2 g citric acid (Merck, #1.06580) was dissolved in 1 L water to obtain a 100 mM solution. pH of the sodiumphosphate solution was adjusted with the citric acid solution to 7.2. The buffer to stop the reaction consists of a 500 mM Carbonate buffer, pH 11.0. 734 mg FM-GlcNAc were dissolved in 5.48 mL DMSO to obtain a 250 mM solution and was stored at −20° C. OGA was used at a 2 nM concentration and FM-GlcNAc at a 100 uM final concentration. Dilutions were prepared in assay buffer.
50 nl of a compound dissolved in DMSO was dispensed on Black Proxiplate TM 384 Plus Assay plates (Perkin Elmer, #6008269) and 3 μl fl-OGA enzyme mix added subsequently. Plates were pre-incubated for 60 min at room temperature and then 2 μl FM-GlcNAc substrate mix added. […] Plates were briefly centrifuged for 1 min at 1000 rpm and incubate at room temperature for 6 h. To stop the reaction 5 μl STOP buffer were added and plates centrifuge again 1 min at 1000 rpm. Fluorescence was quantified in the Thermo Scientific Fluoroskan Ascent or the PerkinElmer EnVision with excitation wavelength 485 nm and emission wavelength 538 nm.
For analysis a best-fit curve is fitted by a minimum sum of squares method. From this an IC50 value and Hill coefficient was obtained. High control (no inhibitor) and low control (saturating concentrations of standard inhibitor) were used to define the minimum and maximum values.

[2] = biological target: OGA (Homo sapiens, UniProt O60502); experiment: OGA cellular assay (ICC detection of O-GlcNAcylated proteins in HEK293 cells inducible for P301L mutant human Tau); conditions: 6 hours incubation; for Cellular Emax (%): maximum = Thiamet G 200 uM
Description: HEK293 cells inducible for P301L mutant human Tau (isoform 2N4R) were established at Janssen. Thiamet-G was used for both plate validation (high control) and as reference compound (reference EC50 assay validation). OGA inhibition is evaluated through the immunocytochemical (ICC) detection of O-GlcNAcylated proteins by the use of a monoclonal antibody (CTD110.6; Cell Signaling, #9875) detecting O-GlcNAcylated residues as previously described (Dorfmueller et al. 2010 Chemistry & biology, 17:1250). Inhibition of OGA will result in an increase of O-GlcNAcylated protein levels resulting in an increased signal in the experiment. Cell nuclei are stained with Hoechst to give a cell culture quality control and a rough estimate of immediate compounds toxicity, if any. ICC pictures are imaged with a Perkin Elmer Opera Phenix plate microscope and quantified with the provided software Perkin Elmer Harmony 4.1.
Cells were propagated in DMEM high Glucose (Sigma, #D5796) following standard procedures. 2 days before the cell assay cells are split, counted and seeded in Poly-D-Lysine (PDL) coated 96-wells (Greiner, #655946) plate at a cell density of 12,000 cells per cm^2 (4,000 cells per well) in 100 μl of Assay Medium (Low Glucose medium is used to reduce basal levels of GlcNAcylation) (Park et al. 2014 The Journal of biological chemistry 289:13519). At the day of compound test medium from assay plates was removed and replenished with 90 μl of fresh Assay Medium. 10 μl of compounds at a 10 fold final concentration were added to the wells. Plates were centrifuged shortly before incubation in the cell incubator for 6 hours. DMSO concentration was set to 0.2%. Medium is discarded by applying vacuum. For staining of cells medium was removed and cells washed once with 100 μl D-PBS (Sigma, #D8537). From next step onwards unless other stated assay volume was always 50 μl and incubation was performed without agitation and at room temperature. Cells were fixed in 50 μl of a 4% paraformaldehyde (PFA, Alpha aesar, #043368) PBS solution for 15 minutes at room temperature. […] Before analysis samples were washed 2 times manually for 5 minutes in ICC base buffer.
Imaging is performed using Perkin Elmer Phenix Opera using a water 20×objective and recording 9 fields per well. Intensity readout at 488 nm is used as a measure of O-GlcNAcylation level of total proteins in wells. To assess potential toxicity of compounds nuclei were counted using the Hoechst staining. IC50-values are calculated using parametric non-linear regression model fitting. As a maximum inhibition Thiamet G at a 200 uM concentration is present on each plate. In addition, a concentration response of Thiamet G is calculated on each plate.

[3] = tested form: 2HCl, listed as 88
[4] = tested form: 2HCl, listed as 89

Enzymatic hOGA; pIC50 [1]: <5
Enzymatic Emax (%) ([1]; listed as 156): 31%
Enzymatic Emax (%) ([1]; listed as 157): 16%
Compound: COc1cccc(C(C)N2CCC(Cc3ccc(F)nc3)C2)n1 (single isomer, unassigned)

Enzymatic Emax (%) [1]: 39%
Enzymatic hOGA; pIC50 [1]: <5
Compound: COc1ccc(C[C@H]2CCN(C(C)c3cccc(OC)n3)C2)cn1 (stereo partly shown)

Enzymatic Emax (%) [1]: 43%
Enzymatic hOGA; pIC50 [1]: <5
Compound: COc1ccc(C[C@H]2CCN([C@H](C)c3cccc(OC)n3)C2)cn1

Enzymatic Emax (%) [1]: 85%
Enzymatic hOGA; pIC50 [1]: 5.71
Compound: COc1cc(C[C@H]2CCCN([C@H](C)c3cc(NC(C)=O)[nH]n3)C2)cc(C)n1

Enzymatic Emax (%) ([1]; tested form: 2HCl): 35%
Enzymatic hOGA; pIC50 ([1]; tested form: 2HCl): <5
Compound: COc1cccc([C@@H](C)N2CCC[C@H](CNc3cc(C)nc(C)c3)C2)n1 (relative stereo)

Enzymatic Emax (%) [1]: 104%
Enzymatic hOGA; pIC50 [1]: 8.12
Cellular hOGA; pEC50 [2]: 7.09
Cellular Emax (%) [2]: 86%
Compound: COc1cc(C[C@H]2CCCN([C@@H](C)c3cc(NC(C)=O)[nH]n3)C2)cc(C)n1

Enzymatic Emax (%) ([1]; listed as 105): 89%
Enzymatic hOGA; pIC50 ([1]; listed as 105): 5.94
Enzymatic Emax (%) ([1]; listed as 106): 29%
Enzymatic hOGA; pIC50 ([1]; listed as 106): <5
Compound: CC(=O)Nc1cc(C(C)N2CC[C@@H](Cc3cc(C)nc(C)c3)C2)n[nH]1 (single isomer, unassigned)

Enzymatic Emax (%) [1, 3]: 32%
Enzymatic hOGA; pIC50 [1, 3]: <5
Enzymatic Emax (%) [1, 4]: 102%
Enzymatic hOGA; pIC50 [1, 4]: 7.6
Cellular Emax (%) ([2]; tested form: 2HCl): 73%
Cellular hOGA; pEC50 ([2]; tested form: 2HCl): 6.85
Compound: COc1cc(NCC2CCCN(C(C)c3cccc(OC)n3)C2)cc(C)n1 (single isomer, unassigned)

Enzymatic Emax (%) ([1]; tested form: 2HCl): 102%
Enzymatic hOGA; pIC50 ([1]; tested form: 2HCl): 7.39
Cellular Emax (%) ([2]; tested form: 2HCl): 74%
Cellular hOGA; pEC50 ([2]; tested form: 2HCl): 7.1
Compound: COc1cccc([C@H](C)N2CCC[C@H](CNc3cc(C)nc(C)c3)C2)n1 (relative stereo)

Enzymatic Emax (%) ([1]; listed as 107): 48%
Enzymatic hOGA; pIC50 ([1]; listed as 107): 5.03
Enzymatic Emax (%) ([1]; listed as 108): 6%
Enzymatic hOGA; pIC50 ([1]; listed as 108): <5
Compound: COc1ccc(F)c(C(C)N2CC[C@H](Cc3ncc(F)cc3F)C2)n1 (single isomer, unassigned)

Enzymatic Emax (%) ([1]; listed as 114): 9%
Enzymatic hOGA; pIC50 ([1]; listed as 114): <5
Enzymatic Emax (%) ([1]; listed as 115): 88%
Enzymatic hOGA; pIC50 ([1]; listed as 115): 5.72
Compound: COc1ccc(F)c(C(C)N2CC[C@H](Cc3ncc(C)nc3C)C2)n1 (single isomer, unassigned)

Second part, the compound before the results:

Compound: CNC(=O)c1cncc(CN2CCC[C@H](Cc3cc(C)nc(C)c3)C2)c1
Enzymatic Emax (%) ([1]; tested form: 2HCl): 98%
Enzymatic hOGA; pIC50 ([1]; tested form: 2HCl): 6.58
Cellular Emax (%) ([2]; tested form: 2HCl): 11%
Cellular hOGA; pEC50 ([2]; tested form: 2HCl): <6

Compound: COc1ccc(C(C)N2CCC[C@H](Cc3cc(C)nc(C)c3)C2)nc1 (stereo partly shown)
Enzymatic Emax (%) [1]: 101%
Enzymatic hOGA; pIC50 [1]: 6.79

Compound: CC(=O)Nc1cncc([C@H](C)N2CCC[C@H](Cc3cc(C)nc(C)c3)C2)c1
Enzymatic Emax (%) [1]: 101%
Enzymatic hOGA; pIC50 [1]: 8.08
Cellular hOGA; pEC50 [2]: 6
Cellular Emax (%) [2]: 40%

Compound: CC(=O)Nc1cc([C@@H](C)N2CCC[C@H](Cc3cc(C)nc(C)c3)C2)nn1C
Enzymatic Emax (%) [1]: 58%
Enzymatic hOGA; pIC50 [1]: 5.16

Compound: CC(=O)Nc1cc([C@@H](C)N2CC[C@H](Cc3ncc(C)nc3C)C2)n[nH]1
Enzymatic Emax (%) [1]: 97%
Enzymatic hOGA; pIC50 [1]: 6.54

Compound: CC(=O)Nc1cc(C(C)N2CCC[C@H](Cc3cc(C)nc(C)c3)C2)nn1C (stereo partly shown)
Enzymatic Emax (%) [1]: 102%
Enzymatic hOGA; pIC50 [1]: 7.58
Cellular hOGA; pEC50 [2]: <6
Cellular Emax (%) [2]: 13%

Compound: CC(=O)Nc1cncc([C@@H](C)N2CCC[C@H](Cc3cc(C)nc(C)c3)C2)c1
Enzymatic Emax (%) [1]: 67%
Enzymatic hOGA; pIC50 [1]: 5.3

Compound: CC(=O)Nc1cncc(C(C)N2CCC[C@H](Cc3cc(C)nc(C)c3)C2)c1 (stereo partly shown)
Enzymatic Emax (%) [1]: 102%
Enzymatic hOGA; pIC50 [1]: 7.87
Cellular hOGA; pEC50 [2]: <6
Cellular Emax (%) [2]: 23%

Compound: CC(=O)Nc1cc([C@H](C)N2CCC[C@H](Cc3cc(C)nc(C)c3)C2)nn1C
Enzymatic Emax (%) [1]: 101%
Enzymatic hOGA; pIC50 [1]: 7.91

Compound: CC(=O)Nc1cc([C@H](C)N2CC[C@H](Cc3ncc(C)nc3C)C2)n[nH]1
Enzymatic Emax (%) [1]: 20%
Enzymatic hOGA; pIC50 [1]: <5

Compound: Cc1cc(C[C@H]2CCCN(C(C)c3cccc(OC(C)C)n3)C2)cc(C)n1 (stereo partly shown)
Enzymatic Emax (%) [1]: 51%
Enzymatic hOGA; pIC50 [1]: 5.02
